Measured values taken from patent US7601737B2, “Isotopically substituted proton pump inhibitors” (priority 2005, dated 2009).

Test system: human cryopreserved hepatocytes
Description: 5-hydroxy-omeprazole was quantified using LC-MS/MS.

SMILES: [2H]C([2H])([2H])Oc1ccc2[nH]c([S@@+]([O-])Cc3ncc(C)c(OC([2H])([2H])[2H])c3C)nc2c1.[Na] [Example 49, (S)-5-Trideuteriomethoxy-2-[(3,5-dimethyl-4-trideuteriomethoxy-2-pyridinyl)methylsulfinyl]-1H-benzimidazole sodium salt]
- Difference in 5-hydroxy-omeprazole formation rate compared to example 48: no difference in the formation rate
